# From patent US20200171005A9, “Heterobifunctional Pan-Selectin Antagonists Having a Triazole Linker” (GlycoMimetics, Inc., priority 2015, published 2020)
# Key:
# [1] = molecular target: T1, E-selectin (E-selectinLEC2 construct) (Homo sapiens, UniProt P16581); experiment: Microscale Thermophoresis (MST) affinity assay for E-selectin; details: labeled E-selectinLEC2, HEPES buffer pH 7.4, 1 mM CaCl2, 25° C.; read-out: Binding Affinity (KD) to E-Selectin Determined by MST
# T1 construct: a construct consisting of the lectin domain, the EGF like domain, and the first two short consensus repeats (E-selectinLEC2)
# T1 sequence (P16581 22-301 limits assumed): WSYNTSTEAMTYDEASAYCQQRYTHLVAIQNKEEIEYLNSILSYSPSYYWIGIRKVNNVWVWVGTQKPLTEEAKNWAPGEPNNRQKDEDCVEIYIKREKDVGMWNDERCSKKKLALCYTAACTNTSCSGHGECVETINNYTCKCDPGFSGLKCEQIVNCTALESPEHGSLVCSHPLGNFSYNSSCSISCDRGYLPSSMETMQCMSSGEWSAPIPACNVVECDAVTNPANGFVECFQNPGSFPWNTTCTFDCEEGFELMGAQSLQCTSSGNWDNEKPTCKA
# Protocol: For E-selectin, a construct consisting of the lectin domain, the EGF like domain, and the first two short consensus repeats (E-selectinLEC2) was labeled using the amine reactive protein labeling kit BLUE-NHS from NanoTemper Technologies GmbH (Munich, Germany).
# The Microscale Thermophoresis (MST) experiments were carried out in a HEPES buffer adjusted to pH 7.4 containing 150 mM NaCl, 1 mM CaCl2 and 0.05% Tween 20 at a temperature of 25° C. with 50% LED power, 50% laser power, laser on time of 30 seconds, and laser off time of 5 seconds with standard treated capillaries. A fixed concentration of the labeled E-selectinLEC2 protein was incubated for 20 minutes with a 15-datapoint […] 1:1 dilution of ligand starting about 30 times above the expected KD. The observed data points were fitted using the single-site binding function of Alan Cooper, Tutorial Chemistry Texts, Vol 16: Biophysical Chemistry; Royal Society of Chemistry: Cambridge, 2004.
# [2] = molecular target: T2, P-selectin (P-selectin/IgG) (Homo sapiens, UniProt P16109); experiment: Cell-free P-selectin ligand competitive binding assay (sLe^a-PAA); details: P-selectin/IgG coated plate, sLe^a-PAA streptavidin-POD complex, 25° C., 2 hours; read-out: IC50, Binding Affinity to P-Selectin Determined by Competitive Binding Assay
# T2 sequence (P16109 42-771): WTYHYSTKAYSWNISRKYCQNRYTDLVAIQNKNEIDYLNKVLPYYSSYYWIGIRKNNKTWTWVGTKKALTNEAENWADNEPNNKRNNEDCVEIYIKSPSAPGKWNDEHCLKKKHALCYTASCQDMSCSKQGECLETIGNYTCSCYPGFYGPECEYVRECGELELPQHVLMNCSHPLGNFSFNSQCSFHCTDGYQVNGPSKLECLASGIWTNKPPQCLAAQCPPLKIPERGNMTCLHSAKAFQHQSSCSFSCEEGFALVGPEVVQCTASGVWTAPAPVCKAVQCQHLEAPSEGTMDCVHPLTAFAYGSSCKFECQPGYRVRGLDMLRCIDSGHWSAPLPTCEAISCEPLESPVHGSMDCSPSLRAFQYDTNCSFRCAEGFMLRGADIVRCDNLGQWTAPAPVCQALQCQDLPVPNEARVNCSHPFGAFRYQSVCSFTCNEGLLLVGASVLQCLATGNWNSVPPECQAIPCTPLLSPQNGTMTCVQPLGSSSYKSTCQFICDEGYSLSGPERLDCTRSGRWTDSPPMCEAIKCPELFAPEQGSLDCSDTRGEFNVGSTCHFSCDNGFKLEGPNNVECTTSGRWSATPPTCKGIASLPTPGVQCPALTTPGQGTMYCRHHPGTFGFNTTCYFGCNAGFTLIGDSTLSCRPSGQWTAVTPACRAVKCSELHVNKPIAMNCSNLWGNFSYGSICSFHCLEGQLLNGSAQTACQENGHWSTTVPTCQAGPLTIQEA
# Protocol: The cell-free P-selectin ligand binding assay was adapted from Weitz-Schmidt et al (G. Weitz-Schmidt, D. Stokmaier, G. Scheel, N. E. Nifant'ev, A. B. Tuzikov, N. V. Bovin, Anal Biochem 1996, 238, 184-190). A MaxiSorp 96-well flat bottom microtiter plate purchased from Nalge Nunc International (Penfield, N.Y., USA) was coated with P-selectin/IgG by incubation with 100 μL/well of the purified protein at a concentration of 3 μg/ml in 10 mM HEPES-NaOH pH 7.4, 150 mM NaCl, 1 mM CaCl2 (HAB-Ca^+). After an overnight incubation at 4° C., the plate was washed three times with HAB-Ca^+ followed by a 2 hour incubation with 200 μL/well of a solution of 3% BSA in HAB-Ca^+ at room temperature to block nonspecific binding. During this incubation, inhibitory test compounds, diluted in HAB-Ca^+, were titrated by a twofold serial and mixed with an equal volume of 0.2 μg/ml of a preformed complex of a biotinylated sialyl Lewis' polyacrylamide polymer (sLe^a-PAA) purchased form GlycoTech Inc. (Gaithsburg, Md., USA) and horseradish peroxidase-labeled streptavidin (streptavidin-POD) purchased from Roche (Rotkreuz, Switzerland). […] The optical density was determined at 450 nm (SpectraMax). […]
substance,measurement,setting,value
"sialyl-Lewis^x [sLe^x, reference compound]",Kd,[1],687 µM
same,IC50,[2],> 7000 µM
